For five compounds, outcome and AC50 results are on record in PubChem BioAssay (EPA / NIEHS).

Protein sequences, listed by entry. Tags and fused reporters are not part of them.
UniProt Q01094, whole entry: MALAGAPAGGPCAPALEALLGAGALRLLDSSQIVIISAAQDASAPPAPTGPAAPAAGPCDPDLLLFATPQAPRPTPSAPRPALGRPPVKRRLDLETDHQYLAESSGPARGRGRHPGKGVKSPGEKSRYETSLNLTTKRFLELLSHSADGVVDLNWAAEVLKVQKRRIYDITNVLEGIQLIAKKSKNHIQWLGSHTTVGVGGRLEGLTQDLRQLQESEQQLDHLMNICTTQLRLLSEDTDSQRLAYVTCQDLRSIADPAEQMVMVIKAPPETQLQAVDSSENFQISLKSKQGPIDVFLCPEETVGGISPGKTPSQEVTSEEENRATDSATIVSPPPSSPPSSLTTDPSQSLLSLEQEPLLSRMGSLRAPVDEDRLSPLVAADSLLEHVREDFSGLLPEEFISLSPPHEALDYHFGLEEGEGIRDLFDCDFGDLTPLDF
UniProt Q9Y261, whole entry: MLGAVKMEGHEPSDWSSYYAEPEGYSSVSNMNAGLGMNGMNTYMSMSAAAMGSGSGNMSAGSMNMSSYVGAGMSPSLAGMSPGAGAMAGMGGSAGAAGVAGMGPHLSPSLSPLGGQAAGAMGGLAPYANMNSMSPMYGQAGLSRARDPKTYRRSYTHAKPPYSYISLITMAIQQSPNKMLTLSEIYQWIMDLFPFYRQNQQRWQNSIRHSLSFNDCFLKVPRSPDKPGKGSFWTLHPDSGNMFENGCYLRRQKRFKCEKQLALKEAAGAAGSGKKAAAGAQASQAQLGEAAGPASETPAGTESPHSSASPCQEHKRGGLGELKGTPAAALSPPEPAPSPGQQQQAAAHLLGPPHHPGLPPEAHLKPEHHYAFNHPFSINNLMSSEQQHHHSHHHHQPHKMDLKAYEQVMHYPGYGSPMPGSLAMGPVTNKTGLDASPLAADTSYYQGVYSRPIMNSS
UniProt Q96RI1, whole entry: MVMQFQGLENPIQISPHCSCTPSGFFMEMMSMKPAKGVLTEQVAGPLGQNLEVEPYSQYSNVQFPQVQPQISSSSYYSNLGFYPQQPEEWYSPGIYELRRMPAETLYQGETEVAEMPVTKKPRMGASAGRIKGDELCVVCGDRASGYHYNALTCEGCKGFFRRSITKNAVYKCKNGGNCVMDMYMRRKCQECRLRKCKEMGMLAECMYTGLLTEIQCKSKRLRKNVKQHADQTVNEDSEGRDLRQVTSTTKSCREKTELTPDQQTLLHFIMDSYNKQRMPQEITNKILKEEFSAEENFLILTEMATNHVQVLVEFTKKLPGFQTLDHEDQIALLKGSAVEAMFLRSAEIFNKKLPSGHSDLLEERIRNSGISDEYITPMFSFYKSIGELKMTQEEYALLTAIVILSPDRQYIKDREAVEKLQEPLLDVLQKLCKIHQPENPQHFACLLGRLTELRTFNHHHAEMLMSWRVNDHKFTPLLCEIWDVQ
UniProt Q16665, whole entry: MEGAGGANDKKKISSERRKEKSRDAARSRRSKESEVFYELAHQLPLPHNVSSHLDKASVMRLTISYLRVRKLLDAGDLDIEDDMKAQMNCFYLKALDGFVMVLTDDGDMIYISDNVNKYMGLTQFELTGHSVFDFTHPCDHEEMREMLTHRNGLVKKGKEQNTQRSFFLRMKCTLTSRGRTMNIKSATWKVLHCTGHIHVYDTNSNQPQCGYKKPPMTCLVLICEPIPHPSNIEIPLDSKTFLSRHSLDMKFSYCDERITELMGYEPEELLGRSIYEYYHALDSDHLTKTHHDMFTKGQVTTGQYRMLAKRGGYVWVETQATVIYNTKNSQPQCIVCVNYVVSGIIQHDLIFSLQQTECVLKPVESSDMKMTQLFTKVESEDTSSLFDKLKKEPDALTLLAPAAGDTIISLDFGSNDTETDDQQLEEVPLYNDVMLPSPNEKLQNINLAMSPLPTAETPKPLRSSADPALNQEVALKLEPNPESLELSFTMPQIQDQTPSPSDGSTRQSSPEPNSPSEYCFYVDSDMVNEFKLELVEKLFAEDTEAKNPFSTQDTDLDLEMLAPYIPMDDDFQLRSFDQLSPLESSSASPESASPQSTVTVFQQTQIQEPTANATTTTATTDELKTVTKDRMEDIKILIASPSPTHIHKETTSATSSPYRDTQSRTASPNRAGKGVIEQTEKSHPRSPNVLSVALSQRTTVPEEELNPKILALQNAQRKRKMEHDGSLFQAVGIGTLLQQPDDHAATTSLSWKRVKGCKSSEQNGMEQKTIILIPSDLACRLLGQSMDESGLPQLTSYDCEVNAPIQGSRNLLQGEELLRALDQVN
UniProt Q9UBC0, whole entry: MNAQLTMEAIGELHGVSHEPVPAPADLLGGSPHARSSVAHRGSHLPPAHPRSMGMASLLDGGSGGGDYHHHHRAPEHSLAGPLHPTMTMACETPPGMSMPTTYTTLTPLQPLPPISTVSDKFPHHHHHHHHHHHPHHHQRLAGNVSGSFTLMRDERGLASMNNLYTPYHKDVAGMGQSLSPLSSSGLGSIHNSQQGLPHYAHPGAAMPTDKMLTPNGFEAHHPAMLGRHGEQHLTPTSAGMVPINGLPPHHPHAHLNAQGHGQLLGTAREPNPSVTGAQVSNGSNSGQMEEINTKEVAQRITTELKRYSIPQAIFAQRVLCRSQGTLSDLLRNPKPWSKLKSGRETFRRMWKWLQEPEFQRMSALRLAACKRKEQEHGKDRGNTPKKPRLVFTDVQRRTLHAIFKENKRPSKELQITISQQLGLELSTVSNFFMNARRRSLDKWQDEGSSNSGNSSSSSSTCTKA
UniProt Q00613, whole entry: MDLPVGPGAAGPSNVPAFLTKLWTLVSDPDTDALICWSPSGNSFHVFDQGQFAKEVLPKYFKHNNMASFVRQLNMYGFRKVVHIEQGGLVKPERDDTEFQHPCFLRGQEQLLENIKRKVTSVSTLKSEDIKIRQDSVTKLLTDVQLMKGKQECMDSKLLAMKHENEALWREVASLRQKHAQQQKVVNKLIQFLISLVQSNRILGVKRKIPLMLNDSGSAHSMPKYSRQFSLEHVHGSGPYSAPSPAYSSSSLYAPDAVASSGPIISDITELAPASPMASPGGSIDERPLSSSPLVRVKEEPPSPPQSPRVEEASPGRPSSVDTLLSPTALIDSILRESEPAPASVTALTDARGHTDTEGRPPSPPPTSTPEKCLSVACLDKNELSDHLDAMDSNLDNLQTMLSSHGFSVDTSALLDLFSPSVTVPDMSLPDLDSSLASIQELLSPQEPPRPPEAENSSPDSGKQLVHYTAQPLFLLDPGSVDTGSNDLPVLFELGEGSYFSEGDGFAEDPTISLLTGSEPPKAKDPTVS

The structures appear in SMILES notation. This is a selection; strong and weak results do not stand in their true shares. Activity calls are given as the source filed them. How the source made its calls: active means hit-call score of the fitted dose curve at least 0.9, where 1 is the maximum; inactive means score below 0.9.

For experiment [1], the target named is Transcription factor E2F1 (Homo sapiens) (UniProt Q01094). Kind of experiment: ATG_E2F_CIS: Attagene CIS-FACTORIAL HepG2 Assay for human E2F Transcription Factor 1 (AID 2282935). As to conditions: HepG2 Attagene cis-reporter, E2F reporter RNA transcripts; actives raise or lower the signal. In short, it runs like this: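 Liver-derived HepG2 cells expressing transfected promoter-driven reporter units received test chemical for 24 hours. Signal gains or losses were fitted bidirectionally against DMSO.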

Experiment [2] in a line: ATG_E_Box_CIS: Attagene CIS-FACTORIAL HepG2 Assay for human Enhancer Box (E-box) (AID 2282936). As to conditions: HepG2 E-box cis-reporter transcription, actives raise or lower the signal. In short, it runs like this:
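In this cell-based setup, HepG2 cells bearing transfected promoter-driven reporter units were exposed to chemicals for 24 h; reporter transcripts were amplified, 6-FAM-labelled, cut with HpaI and sized by capillary electrophoresis.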

A short description of experiment [3]: ATG_M_61_CIS: Attagene CIS-FACTORIAL HepG2 Assay for M61 Transcription Factor (Internal Marker) (AID 2282937). Conditions: HepG2 Attagene CIS-FACTORIAL M61 internal marker reporter; actives raise or lower the signal. In short, it runs like this: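 Fluorescence from labelled cDNA fragments, separated by capillary electrophoresis, quantifies reporter induction. HepG2 cells bearing transiently transfected cis-promoter MRTUs were incubated with test chemical for 24 h; DMSO defined baseline for gain/loss fitting.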

Experiment [4] is described as follows: ATG_EGR_CIS: Attagene CIS-FACTORIAL HepG2 Assay for human Early Growth Response 1 (EGR1) (AID 2282938). As to conditions: HepG2 Attagene CIS-FACTORIAL EGR reporter mRNA; actives raise or lower the signal. In short, it runs like this:
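Cell-based multiplex transcription assay: HepG2 carrying transfected cis-element reporter units, 24 h chemical treatment. Fluorescence from capillary electrophoresis of RT-PCR products gives mRNA levels; fitting is bidirectional relative to DMSO.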

Experiment [5] is described as follows: ATG_M_19_CIS: Attagene CIS-FACTORIAL HepG2 Assay for M19 Transcription Factor (Internal Marker) (AID 2282939). As to conditions: HepG2 Attagene CIS-FACTORIAL M19 internal marker reporter; actives raise or lower the signal. Summed up:
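HepG2 cells transiently transfected with cis-regulated multiplexed reporter units, dosed 24 h. Reporter mRNA quantified by RT-PCR and capillary electrophoresis; internal background marker fitted bidirectionally versus DMSO.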

Experiment [6] is described as follows: ATG_ERE_CIS: Attagene CIS-FACTORIAL HepG2 Assay for Estrogen Response Element (ERE) (AID 2282940). Conditions: HepG2 ERE cis-reporter, Attagene RNA transcript; actives raise or lower the signal. In short, it runs like this: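 HepG2 cells transiently transfected with multiplexed cis-element reporter units, measuring endogenous transcription factor activity; ERE reporter mRNA quantified after 24 h exposure by RT-PCR, fluorescent labelling, HpaI digestion and capillary electrophoresis. Bidirectional change versus DMSO.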

Experiment [7] can be described thus: ATG_Ets_CIS: Attagene CIS-FACTORIAL HepG2 Assay for human Erythroblast Transformation Specific (ETS) (AID 2282941). Conditions: HepG2 ETS cis-reporter transcription, actives raise or lower the signal. In short, it runs like this:
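RT-PCR/capillary electrophoresis fluorescence read-out of reporter mRNA; HepG2 transient multi-reporter transfection; 24 h compound exposure; gain or loss of signal fitted bidirectionally relative to DMSO.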

Experiment [8] concerns the target Hepatocyte nuclear factor 3-beta (Homo sapiens) (UniProt Q9Y261). Put plainly: ATG_FoxA2_CIS: Attagene CIS-FACTORIAL HepG2 Assay for human Forkhead box A2 (FOXA2) (AID 2282942). Conditions: HepG2 cis-reporter transcription factor activity, 24 h; actives raise or lower the signal. Summed up:
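In transiently transfected human HepG2 cells, promoter-driven reporter mRNA levels after 24 h chemical exposure are determined via RT-PCR with capillary electrophoresis. DMSO serves as baseline for bidirectional fitting.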

Experiment [9] is described as follows: ATG_FoxO_CIS: Attagene CIS-FACTORIAL HepG2 Assay for human Forkhead box O (FoxO) (AID 2282943). Conditions: HepG2 Attagene cis-reporter, FoxO element, mRNA; actives raise or lower the signal. Summed up:
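Read-out: fluorescence of 6-FAM-labelled reporter cDNA fragments resolved by capillary electrophoresis. Transiently transfected HepG2 cells were dosed for 24 h; activity fitted in both directions relative to DMSO controls.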

A short description of experiment [10]: ATG_GATA_CIS: Attagene CIS-FACTORIAL HepG2 Assay for human GATA Binding Protein (AID 2282944). Conditions: HepG2 GATA cis-element reporter, Attagene multiplex mRNA; actives raise or lower the signal. In short, it runs like this: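 HepG2 cells transiently transfected with multiplexed cis-element reporter units measure endogenous GATA activity; after 24 h compound exposure, reporter mRNA quantified by RT-PCR and capillary electrophoresis. Changes fitted in both directions vs DMSO.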

Experiment [11] is described as follows: ATG_GLI_CIS: Attagene CIS-FACTORIAL HepG2 Assay for human Zinc Finger Protein GLI1 (AID 2282945). Conditions: HepG2, Attagene cis-factorial reporter mRNA, GLI element; actives raise or lower the signal. In short, it runs like this:
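Transiently transfected HepG2 cells report endogenous transcription factor activity via cis-element-driven reporter units. After 24 h compound exposure, reporter mRNA was measured by RT-PCR with capillary electrophoresis; bidirectional fitting against DMSO baseline.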

The target in experiment [12] is Bile acid receptor (Homo sapiens) (UniProt Q96RI1). Kind of experiment: ATG_IR1_CIS: Attagene CIS-FACTORIAL HepG2 Assay for human Nuclear Receptor Subfamily 1 Group H Member 4 (NR1H4), IR1 submotif (AID 2282946). Conditions: IR1 reporter transcription, actives raise or lower the signal. In short, it runs like this: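 Fluorescence of capillary-separated, HpaI-digested RT-PCR reporter products gave IR1-element mRNA induction in HepG2 cells 24 h after dosing. Endogenous transcription factors drove the cis-regulated reporters; activity was fitted bidirectionally against DMSO.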

A short description of experiment [13]: ATG_GRE_CIS: Attagene CIS-FACTORIAL HepG2 Assay for human Glucocorticoid Response Elements (GRE) (AID 2282947). Conditions: HepG2 GRE cis-reporter, Attagene multiplex mRNA; actives raise or lower the signal. In short, it runs like this: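 Fluorescence intensity of reporter-specific cDNA fragments, separated by capillary electrophoresis, provides the signal. Constructs carry cis-regulating promoters in transiently transfected HepG2 liver cells; 24 h incubation; fitting is bidirectional against DMSO.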

Experiment [14] can be described thus: ATG_ISRE_CIS: Attagene CIS-FACTORIAL HepG2 Assay for human Interferon Regulatory Factor 1 (IRF1) binding to an Interferon-Stimulated Response Element (ISRE) (AID 2282948). Conditions: HepG2 ISRE cis-reporter (Attagene), mRNA transcription readout; actives raise or lower the signal. In short, it runs like this:
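Read-out: fluorescent RT-PCR products resolved by capillary electrophoresis, reporting endogenous transcription factor activity via ISRE-driven reporter mRNA in transfected HepG2 cells dosed for 24 h; gain or loss fitted relative to DMSO.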

Experiment [15] can be described thus: ATG_M_32_CIS: Attagene CIS-FACTORIAL HepG2 Assay for M32 Transcription Factor (Internal Marker) (AID 2282949).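 Further: background control marker of the multiplexed CIS panel rather than a real target.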 Conditions: HepG2 Attagene cis-factorial M32 reporter, mRNA; actives raise or lower the signal. Summed up:
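HepG2 human liver cells transiently transfected with cis-promoter-driven multiple reporter transcription units, dosed 24 h. Reporter mRNA quantified by RT-PCR, FAM-labelled primer extension, HpaI digest and capillary electrophoresis; bidirectional fit versus DMSO baseline.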

Experiment [16] can be described thus: ATG_M_06_CIS: Attagene CIS-FACTORIAL HepG2 Assay for M06 Transcription Factor (Internal Marker) (AID 2282950). Conditions: HepG2 Attagene CIS-FACTORIAL M06 internal marker reporter; actives raise or lower the signal. In short, it runs like this: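 Internal background marker within multiplexed cis-reporter HepG2 system. Cells transiently transfected, dosed 24 h; reporter mRNA measured by RT-PCR, HpaI digestion and capillary electrophoresis. Bidirectional fit relative to DMSO.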

Experiment [17] addresses Hypoxia-inducible factor 1-alpha (Homo sapiens) (UniProt Q16665). Put plainly: ATG_HIF1a_CIS: Attagene CIS-FACTORIAL HepG2 Assay for human Hypoxia Inducible Factor 1 (HIF1A) (AID 2282951). As to conditions: HepG2 Attagene cis-factorial HIF1a reporter transcription; actives raise or lower the signal. Summed up: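 In this multiplexed cell assay, HepG2 cells bearing transfected cis reporters are dosed for 24 h and reporter mRNA is read by RT-PCR plus capillary electrophoresis; signal increases and decreases are both scored against DMSO.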

The target in experiment [18] is Hepatocyte nuclear factor 6 (Homo sapiens) (UniProt Q9UBC0). Kind of experiment: ATG_HNF6_CIS: Attagene CIS-FACTORIAL HepG2 Assay for human Hepatocyte Nuclear Factor 6 (HNF6) (AID 2282952). As to conditions: HepG2 Attagene cis-factorial HNF6 reporter transcription; actives raise or lower the signal. Summed up: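 Endogenous factor activity read in transiently transfected HepG2 via promoter-regulated reporter transcripts. RNA harvested 24 h post-dosing, reverse-transcribed, PCR-amplified, FAM-labelled, HpaI-digested and resolved by capillary electrophoresis; fitted in both directions against DMSO.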

The target in experiment [19] is Heat shock factor protein 1 (Homo sapiens) (UniProt Q00613). Put plainly: ATG_HSE_CIS: Attagene CIS-FACTORIAL HepG2 Assay for human Heat Shock Transcription Factor 1 (HSE) (AID 2282953). Conditions: HepG2 HSE cis-reporter, Attagene RNA transcription; actives raise or lower the signal. Summed up:
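HepG2 cells transfected with cis-promoter reporter units sensing endogenous transcription factor activity; reporter mRNA quantified 24 h post-dose by RT-PCR and capillary electrophoresis of 6-FAM-labelled products. Bidirectional fitting against DMSO.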

A short description of experiment [20]: ATG_MRE_CIS: Attagene CIS-FACTORIAL HepG2 Assay for human Metal Responsive Element (MRE) (AID 2282954). As to conditions: HepG2 MRE cis-reporter transcription, Attagene multiplex; actives raise or lower the signal. Summed up: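 Measured here is mRNA induction from an MRE cis-element reporter in HepG2 after 24 h, quantified by fluorescence of labelled RT-PCR products on capillary electrophoresis; gain- and loss-of-signal fits use DMSO as baseline.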

With `ClCCNCCCl`, the outcome in [1], in [2], in experiment [3], in [4], in experiment [5] and in experiment [6] was inactive. The result in experiment [7], in experiment [8], in [9], in experiment [10], in experiment [11] and in [12] was inactive. Further, the compound was classed as inactive in [13], in [14], in experiment [15], in experiment [16], in experiment [17] and in [18]. Further, the outcome in experiment [19] and in experiment [20] was inactive.

In the case of `CC(C)OP(OC(C)C)OC(C)C`, the outcome in [1], in experiment [2], in [3], in experiment [4], in experiment [5] and in experiment [6] was inactive. In addition, the outcome in experiment [7], in [8], in experiment [9], in experiment [10], in [11] and in experiment [12] was inactive. Also, the call in experiment [13], in experiment [14], in experiment [15], in experiment [16], in experiment [17] and in experiment [18] was inactive. Further, the compound was classed as inactive in [19] and in [20].

Take `CCOP(=O)(Cl)Cl`: the call in experiment [1], in [2], in [3], in experiment [4], in experiment [5] and in experiment [6] was inactive. The call in [7], in experiment [8], in experiment [9], in experiment [10], in experiment [11] and in [12] was inactive. In addition, the call in experiment [13], in experiment [14], in [15], in [16], in [17] and in experiment [18] was inactive. Besides, in [20], the result was inactive.

Consider `ClCCOP(OCCCl)OCCCl`, for which the outcome in experiment [1], in experiment [2], in experiment [3], in experiment [4], in [5] and in [6] was inactive. Moreover, the outcome in experiment [7], in experiment [8], in experiment [9], in [10], in experiment [11] and in experiment [13] was inactive. Further, the compound was classed as inactive in [14], in experiment [15], in experiment [16], in experiment [17], in experiment [18] and in experiment [19]. In addition, the outcome in experiment [20] was inactive.

As usually defined, the AC50 is the concentration giving half of the maximal activity seen. Regarding `O=[N+]([O-])c1ccccc1[N+](=O)[O-]`, the outcome in [1], in [3], in experiment [4], in [5], in [7] and in experiment [8] was inactive. The compound was called inactive in experiment [9], in experiment [10], in experiment [11], in experiment [13], in experiment [14] and in experiment [15]. Also, the result in [16], in experiment [17], in experiment [18], in [19] and in experiment [20] was inactive. In addition, the AC50 in experiment [2] is active: 46.7 µM.
